Laboratory results: ChEMBL document CHEMBL1130285, “5-HT1A-versus D2-receptor selectivity of flesinoxan and analogous N4-substituted N1-arylpiperazines” (J Med Chem, 1997)

Protein sequences, listed by entry. Tags and fused reporters are not part of them.
UniProt P61169, whole entry: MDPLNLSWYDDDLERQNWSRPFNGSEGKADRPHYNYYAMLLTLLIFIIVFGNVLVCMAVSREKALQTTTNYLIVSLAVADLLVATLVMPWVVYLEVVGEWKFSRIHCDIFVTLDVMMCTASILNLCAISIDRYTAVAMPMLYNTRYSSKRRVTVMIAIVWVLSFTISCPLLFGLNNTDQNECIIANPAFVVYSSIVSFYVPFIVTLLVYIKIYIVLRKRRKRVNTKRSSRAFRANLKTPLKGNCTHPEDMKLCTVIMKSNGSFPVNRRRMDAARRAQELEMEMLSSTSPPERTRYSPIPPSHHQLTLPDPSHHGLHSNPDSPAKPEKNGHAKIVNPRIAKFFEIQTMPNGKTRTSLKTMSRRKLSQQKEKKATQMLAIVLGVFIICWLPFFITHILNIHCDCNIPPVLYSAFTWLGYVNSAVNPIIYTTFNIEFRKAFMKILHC

Molecular target: D(2) dopamine receptor (Rattus norvegicus, UniProt P61169)
Test: In vitro displacement of [3H]spiperone from Dopamine receptor D2 binding site in rat striatum.

O=C(NCCN1CCN(c2ccccc2)CC1)c1ccc(F)cc1
Ki: 92 nM
